In PubChem BioAssay AID1979 (Broad Institute, 2009) one finds growth inhibition data, which are given here for 99 compounds.

This is a selection; strong and weak results do not stand in their true shares. Some salts or complexes appear as unconnected parts, following the source record. Calls of active or inactive are those of the source.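 The calls were made as follows: active = growth inhibition above about 58% in most replicates (limit read from the data, passing the limit was not always enough); inconclusive = exactly half the replicates above a set limit; inactive = most replicates below a set limit.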

The nature of this assay: Candida growth reduction under fluconazole – CaCi-2 strain, Alamar Blue fluorescence, primary screen (AID 1979).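 Also: all wells also contain fluconazole at 8 µg/ml as a sub-toxic cotreatment; 0% = median of DMSO wells and 100% = median of geldanamycin control wells.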 The settings on record: C. albicans CaCi-2 (fluconazole-resistant clinical isolate) + fluconazole, 48 h, active compounds read high, concentration not given here.
Take `COc1ccc(OP(C)(=O)Nc2cccc(Br)c2)cc1` (centres undefined): the growth inhibition was inactive: 19%.
For the compound `O=P(Nc1ccccn1)(c1ccc(Br)cc1)c1ccc(Br)cc1`, the growth inhibition was inactive: 20.7%.
Next, `CN(C)C1(CNC(=O)c2ccc(Cl)c(S(N)(=O)=O)c2)CCCCC1`: inactive: -4.37%; `CN(C)CCOC(=O)C(O)(c1ccccc1)C1CCCCC1` (centres undefined): inactive: -5.7%; `O=P(Nc1nc2ccccc2s1)(c1ccccc1)c1ccccc1`: inactive: 1.85%.
For the compound `C[C@H]1OP(=O)(Oc2ccccc2)[C@H](O)[C@H](O)[C@H]1N=[N+]=[N-]` (some centres undefined), the growth inhibition was inactive: -2.58%.
Turning to `COc1ccc(NP(C)(=O)Oc2ccccc2OC)cc1` (centres undefined), the growth inhibition was inactive: -3.42%.
For the compound `O=[N+]([O-])c1ccc(O)c(/C=N/Nc2ccc([N+](=O)[O-])cc2[N+](=O)[O-])c1`, the growth inhibition was inactive: -21.7%.
As for `O=[N+]([O-])c1ncn(CCn2cnc([N+](=O)[O-])n2)n1`, the figure is inactive: 9.57%; as for `CC(=O)NC(SC(=S)N(C)C)C(Cl)(Cl)Cl` (centres undefined), inactive: -0.549%; as for `O=[N+]([O-])c1ccc(OP2(=O)COCCO2)cc1` (centres undefined), inactive: 7.18%.
As for `O=[As](O)(c1ccccc1)c1ccc(O)cc1`, the figure is inactive: -10.4%.
As for `O=[N+]([O-])c1cc([N+](=O)[O-])c(NCC2CCS(=O)(=O)C2)c([N+](=O)[O-])c1` (centres undefined), the figure is inactive: 39.3%; as for `Cc1cc(-c2cccc3ccccc23)c(C)cn1.O=[N+]([O-])c1cc([N+](=O)[O-])c(O)c([N+](=O)[O-])c1`, inactive: -0.442%.
For the compound `Nc1ccc([As](=O)(O)c2ccc([N+](=O)[O-])cc2)cc1`, the growth inhibition was inactive: 2.75%.
Next, `C(Cc1nn[nH]n1)Cc1nn[nH]n1`: inactive: -21.2%.
`O=C(OC1CN2CCC1CC2)c1cccc(Cl)c1` (centres undefined): the growth inhibition is inactive: -0.222%.
Consider `CP(=O)(Nc1ccc(SC(F)(F)F)cc1)Oc1ccc(F)cc1` (centres undefined), for which the growth inhibition is inactive: -2.03%.
As for `CC(C)C(=O)NC(Sc1ccccc1)C(Cl)(Cl)Cl` (centres undefined), the figure is inactive: -16.3%.
In the case of `O=P(Nc1nccs1)(c1ccccc1)c1ccccc1`, the growth inhibition is inactive: -3.8%.
With `CCOP(C)(=S)SCC(=O)NC(C)(CC)C(=O)O` (centres undefined), the growth inhibition was inactive: 25.1%.
Next, `c1nnnn1CCn1cnnn1`: inactive: 5.41%; `CP(=O)(Nc1ccc2c(c1)OCCO2)Oc1ccccc1` (centres undefined): inactive: -8.55%; `Cc1ccccc1NP(C)(=O)Nc1ccccc1C`: inactive: -5.06%.
In the case of `CCOc1ccc(C2=NCC(CBr)S2)cc1` (centres undefined), the growth inhibition was inactive: -12.8%.
As for `CP(=O)(Nc1ccccc1F)Oc1ccccc1` (centres undefined), the figure is inactive: -11.9%; as for `CC(C)(C)C(=O)NC(Sc1ccccc1)C(Cl)(Cl)Cl` (centres undefined), inactive: -27.1%; as for `CC(C)c1ccc(OP(C)(=O)Nc2ccc(SC(F)(F)F)cc2)cc1` (centres undefined), inactive: 5.48%.
On to `CC(=O)c1ccc(N2CC2c2ccncc2)cc1` (centres undefined), for which the growth inhibition is inactive: -4.57%.
Next, `O=C(OC1CN2CCC1CC2)c1ccc([N+](=O)[O-])cc1` (centres undefined): inactive: -1.06%.
In the case of `O=C(OCCN1CCN(CCOCc2ccccc2)CC1)C(O)(c1ccccc1)c1ccccc1`, the growth inhibition is inactive: -7.28%.
For the compound `C[C@@H]1C=CCP(=O)(Oc2ccccc2)O1` (some centres undefined), the growth inhibition is inactive: -9.62%.
Consider `C[C@H]1OP(=O)(Oc2ccccc2)C[C@@H]2O[C@@H]21` (some centres undefined), for which the growth inhibition is inactive: -4.13%.
On to `COc1ccc2c(c1O)-c1c(O)c(OC)cc3c1[C@H](C2)[N+](C)(C)CC3.O=[N+]([O-])c1cc([N+](=O)[O-])c([O-])c([N+](=O)[O-])c1[O-]`, for which the growth inhibition was inactive: 2.47%.
Next, `CC(=O)Nc1ccc([As](=O)(O)O)c(O)c1`: inactive: 1.2%.
As for `CC(=O)Nc1ccc(Oc2c([N+](=O)[O-])cc([N+](=O)[O-])cc2[N+](=O)[O-])cc1`, the figure is inactive: -3.61%; as for `CCNC(=S)/N=C(\N)N[N+](=O)[O-]`, inactive: -4.91%; as for `O=C(NC1CCS(=O)(=O)C1)NP(=S)(Oc1ccccc1)Oc1ccccc1` (centres undefined), inactive: 6.3%.
Consider `c1ccc(-c2nn[nH]n2)c(-c2nn[nH]n2)c1`, for which the growth inhibition was inactive: 4.97%.
With `CCOC(=O)NC(Sc1ccccc1)C(Cl)(Cl)Cl` (centres undefined), the growth inhibition was inactive: -0.365%.
As for `Cc1ccc(NP(=O)(Oc2cccc(C)c2)Oc2cccc(C)c2)nc1`, the growth inhibition is inactive: -6.96%.
Turning to `CCOC(=O)c1ccc(NP(C)(=O)Oc2ccc(F)cc2)cc1` (centres undefined), the growth inhibition was inactive: 3.38%.
Next, `COc1ccc(OP(C)(=O)Nc2ccc(SC(F)(F)F)cc2)cc1` (centres undefined): inactive: -5.82%.
With `COC(=O)c1cc2c(s1)N=C(c1ccccc1)N(C)P2(=O)N1CCOCC1` (centres undefined), the growth inhibition is inactive: -9.26%.
Next, `Cc1ccc(OP(=O)(Nc2ccccn2)Oc2ccc(C)cc2)cc1`: inactive: -2.26%.
As for `CC(=O)NC(SC(=S)N(CC(C)C)CC(C)C)C(Cl)(Cl)Cl` (centres undefined), the growth inhibition is inactive: 50.5%.
As to `O=C(OC1CN2CCC1CC2)c1ccccc1` (centres undefined), the growth inhibition is inactive: 2.58%.
Take `CCN(CC)CCCOC(=O)C(O)(c1ccccc1)C1CCCCC1` (centres undefined): the growth inhibition was inactive: -3.85%.
In the case of `CCC(=O)N1C2C3N(C(=O)CC)C1C1N(C(=O)CC)C(C(N1C(=O)CC)N3C(=O)CC)N2C(=O)CC`, the growth inhibition is inactive: 0.389%.
For `CP(=O)(Nc1ccccc1)Oc1ccc(F)cc1` (centres undefined), the growth inhibition was inactive: 0.22%.
As for `Cc1ccccc1OP(=O)(Nc1ccccn1)Oc1ccccc1C`, the figure is inactive: 2.68%; as for `CN(C)C(=O)Oc1noc2ccccc12`, inactive: 3.92%; as for `CCCCCOc1ccc(NP(C)(=O)Oc2ccc(Cl)cc2Cl)cc1` (centres undefined), inactive: -2.29%.
As for `O=[N+]([O-])c1cc([N+](=O)[O-])c(OC2CCCCC2O)c([N+](=O)[O-])c1` (centres undefined), the figure is inactive: -5%.
In the case of `O=C(O)c1ccccc1[As](=O)(O)O`, the growth inhibition was inactive: 3.27%.
Turning to `CC(=O)Nc1ccc([As](=O)(O)O)cc1`, the growth inhibition is inactive: 2.05%.
As for `Cc1cc(C)cc(OP(C)(=O)Nc2cccc(C(F)(F)F)c2)c1` (centres undefined), the figure is inactive: 7.43%; as for `O=P(Nc1nc2ccc(Cl)cc2s1)(c1ccccc1)c1ccccc1`, inactive: 13.5%; as for `CCOP(=O)(Nc1ccccc1)OCC`, inactive: -0.64%.
Next, `Cc1cc(SC(NC(=O)c2ccc(F)cc2)C(Cl)(Cl)Cl)ncn1` (centres undefined): inactive: 0.783%; `Cc1ccc(NP(=O)(Oc2ccccc2F)Oc2ccccc2F)nc1`: inactive: -8.22%.
Next, `COc1ccccc1OP(C)(=O)Nc1ccc(C)c(C)c1` (centres undefined): inactive: -3.38%.
Take `COc1ccc(OP(C)(=O)Nc2ccccc2Br)cc1` (centres undefined): the growth inhibition is inactive: -6.34%.
Next, `Cc1nc2ccc3ccccc3c2o1.O=[N+]([O-])c1cc([N+](=O)[O-])c(O)c([N+](=O)[O-])c1`: inactive: 2.75%; `O=[N+]([O-])c1cc([N+](=O)[O-])c(CCN2CCOCC2)c([N+](=O)[O-])c1`: inactive: -1.33%.
Next, `CCN(N=Nc1nonc1N)c1nonc1N`: inactive: -1.59%; `Nc1cccc2ccc([As](=O)(O)O)cc12`: inactive: 0.256%; `CP(=O)(OCCOc1ccccc1)OCCOc1ccccc1`: inactive: -0.129%.
On to `CP(=O)(Nc1ccc(Cl)cc1Cl)Oc1ccccc1` (centres undefined), for which the growth inhibition is inactive: -3.83%.
Consider `NC(=O)c1cc([N+](=O)[O-])cc([N+](=O)[O-])c1N`, for which the growth inhibition was inactive: -3.39%.
As for `COc1ccccc1OP(C)(=O)Nc1ccc(Br)cc1` (centres undefined), the figure is inactive: 7.06%; as for `Cc1ccc(N/C(=N/P(=O)(N2CCOCC2)N2CCOCC2)N2CCOCC2)cc1`, inactive: 18.8%.
With `COc1ccc(OP(C)(=O)Nc2ccccn2)cc1` (centres undefined), the growth inhibition was inactive: -6.69%.
For the compound `COc1ccccc1OP(=O)(Nc1ccc(C)cn1)Oc1ccccc1OC`, the growth inhibition is inactive: -3.04%.
`Cc1ccc(OP(=O)(Nc2nccs2)Oc2ccc(C)cc2)cc1`: the growth inhibition was inactive: -10.5%.
Next, `Clc1ccc(Cl)c(NC2=NCC(CBr)S2)c1` (centres undefined): inactive: -9.6%.
For `CN(C)CCOC(=O)C(O)(c1ccccc1)C1CCCC1` (centres undefined), the growth inhibition is inactive: -14.3%.
In the case of `CN1CCCC(OC(=O)C(c2ccccc2)c2ccccc2)C1` (centres undefined), the growth inhibition is inactive: -3.09%.
Next, `CC(C)CC(=O)NC(Sc1ccc(Cl)cc1)C(Cl)(Cl)Cl` (centres undefined): inactive: -5.88%; `O=[N+]([O-])c1cc([N+](=O)[O-])c(Nc2ccccn2)c([N+](=O)[O-])c1`: inactive: 57.4%; `Cc1c(NP(C)(=O)Oc2ccc(C(C)C)cc2)c(=O)n(-c2ccccc2)n1C` (centres undefined): inactive: 3.69%.
Next, `Nc1cc(N)c2nonc2c1[N+](=O)[O-]`: inactive: 24.9%; `Oc1ccccc1CNc1ccccn1`: inactive: 3.57%; `Cc1c2non([O-])c-2c(C)[n+](=O)[n+]1[O-]`: inactive: 22.7%.
With `O=C(NC(Sc1ccncn1)C(Cl)(Cl)Cl)c1ccccc1` (centres undefined), the growth inhibition was inactive: -2.48%.
Take `CP(=O)(Nc1ccccn1)Oc1ccccc1` (centres undefined): the growth inhibition was inactive: 1.99%.
As for `COc1ccccc1OP(C)(=O)Nc1ccc(C)cc1C` (centres undefined), the figure is inactive: -2.91%; as for `CCc1ccc(OP(C)(=O)O)cc1`, inactive: 1.87%.
`CCN(CC)CC(O)COC(=O)C(O)(c1ccccc1)C1CCCCC1` (centres undefined): the growth inhibition is inactive: -0.638%.
As for `COc1ccc(OP(C)(=O)Nc2ccc(Br)cc2)cc1` (centres undefined), the figure is inactive: 20.8%.
`COc1ccc(C2=NCC(CBr)S2)cc1` (centres undefined): the growth inhibition was inactive: -0.749%.
Next, `COc1ccccc1OP(C)(=O)Nc1c(C)n(C)n(-c2ccccc2)c1=O` (centres undefined): inactive: -2.75%; `O=[N+]([O-])c1cccc2n[nH]nc12`: inactive: 2.24%.
Regarding `CC(=O)N1C2C3N(C(C)=O)C1C1N(C(C)=O)C(C(N1C(C)=O)N3C(C)=O)N2C(C)=O`, the growth inhibition was inactive: 2.31%.
For the compound `O=C(OCCCN1CCCC1)C(O)(c1ccccc1)C1CCCCC1` (centres undefined), the growth inhibition is inactive: -3.35%.
Next, `CP(=O)(Oc1ccccc1)N1CCOC1=O` (centres undefined): inactive: -4.05%; `Cc1ccc(NP(=O)(Oc2ccccc2)Oc2ccccc2)nc1`: inactive: 2.41%; `CCc1nc2c(n1)c1c(non1O)c1c2no[n+]1[O-]`: inactive: 51.7%.
As for `O=[N+]([O-])c1cc([N+](=O)[O-])c(CCNc2ccccc2)c([N+](=O)[O-])c1`, the figure is inactive: -4.14%.
